Patent US20230381215A1, “NOVEL COMBINATION TREATMENT FOR ACUTE MYELOID LEUKEMIA (AML)” (Hoffmann-La Roche Inc., priority 2013, published 2023)

Procedure: Female SCID beige mice (10/group), obtained from Charles River Laboratories (Wilmington, DE) were used when they were approximately 8-12 weeks old and weighed approximately 20-25 grams. The health of the mice was assessed daily by gross observation and analyses of blood samples taken from sentinel animals housed on shared shelf racks. All animals were allowed to acclimate and recover from any shipping-related stress for a minimum of 72 hours prior to experimental use. Autoclaved water and irradiated food (5058-ms Pico Lab mouse chow, Purina Mills, Richmond, IN) were provided ad libitum, and the animals were maintained on a 12 hour light and dark cycle. Cages, bedding and water bottles were autoclaved before use and changed weekly. All animal experiments were conducted in accordance with the Guide for the Care and Use of Laboratory Animals, local regulations, and protocols approved by the Roche Animal Care and Use Committee in an AAALAC accredited facility.
Treatment duration was 3 weeks.
For increased life span (ILS) assessment, animal body weights were measured two to three times per week, and animals were monitored daily for any clinical signs of toxicity or excessive tumor burden (i.e. hind limb paralysis or morbidity). In addition, progression of disease was monitored by in vivo bioluminescent imaging (BLI) using IVIS® Spectrum system. For each BLI session, mice received 100 mg/kg D-luciferin (Caliper Life Sciences/Perkin-Elmer) via ip injections and were imaged at 20 min post luciferin injection at either a 5 s or a 10 s exposure time. Images were captured by the IVIS® Spectrum system and data were collected and analyzed with Living Image 4.2.0 software (Caliper Life Sciences, Hopkinton, MA). Total photon fluxes (ph/s) representing luciferase activity within each fixed region of interest (ROI) covering whole tumors of individual mice were determined. The actual images of mice are not disclosed herein.
Weight loss was graphically represented as percent change in mean group body weight, using the formula: ((W−W0)/W0)×100, where ‘W’ represents mean body weight of the treated group at a particular day, and ‘W0’ represents mean body weight of the same treated group at initiation of treatment.

[1] = compound I-B 437 mg/kg q7d iv, 10/group

4-{[(2R,3S,4R,5S)-3-(3-Chloro-2-fluoro-phenyl)-4-(4-chloro-2-fluoro-phenyl)-4-cyano-5-(2,2-dimethyl-propyl)-pyrrolidine-2-carbonyl]-amino}-3-methoxy-benzoic acid 1-mPEG-carbonyloxy-ethyl ester (mPEG, average MW, 2200) [compound I-B]
% Change in Body Weight at Day 17 (compound I-B 437 mg/kg q7d iv): −2.8%
# of animals ≥20% body weight loss [1]: 0
Mortality [1]: 1
deaths after dosing (directly after iv dosing, undetermined cause): sporadic deaths directly after iv dosing
